The numbers were not newly measured in US10729128B2, “Emulsion blocking latex protein and other skin irritants” (BIOTD SOCIEDAD ANONIMA, priority 2014, dated 2020), which cites them from elsewhere.

SMILES strings stand for the structures.

For the data set the following is noted: in water.

As to `CC12CCC(CC1)C(C)(C)O2` [Essence of Eucalyptus], the Solubility entry is given as “immiscible with water”.
